The target in one experiment is rat nNOS (Rattus norvegicus, UniProt P29476). Put plainly: NO hemoglobin capture assay, rat nNOS. The experiment is classed as biochemical. The note with it: Table 1; Ki from IC50 by Cheng-Prusoff; 10 μM L-Arg, pH 7.4, 37° C.
In a further experiment the target is murine macrophage iNOS (Mus musculus, UniProt P29477). Nature of the experiment: NO hemoglobin capture assay, murine iNOS. Format: biochemical. The note with it: Table 1; Ki from IC50 by Cheng-Prusoff; 10 μM L-Arg, pH 7.4, 37° C.
The target in the next experiment is human eNOS (Homo sapiens, UniProt P29474). Nature of the experiment: NO hemoglobin capture assay, human eNOS. The note with it: read-out: Ki human eNOS; Table 2.
A further experiment deals with human iNOS (Homo sapiens, UniProt P35228). Nature of the experiment: NO hemoglobin capture assay, human iNOS. The note with it: read-out: Ki human iNOS; Table 2.

The Ki is a measure of affinity in units of concentration, obtained from inhibition or displacement.

Regarding `Cc1cc(N)nc(CCc2cc(CC[C@H]3CCN3C)cc(F)c2F)c1` [Compound 21, (S)-6-(2,3-difluoro-5-(2-(1-methylazetidin-2-yl)ethyl)phenethyl)-4-methylpyridin-2-amine], the Ki at rat nNOS worked out at 26 nM; at murine macrophage iNOS, 2060 nM; at human eNOS, 22000 nM; on human iNOS, 1780 nM.

The values are drawn from patent publication US12240815B2, “Potent and selective human neuronal nitric oxide synthase inhibitors” (Northwestern University, priority 2020, dated 2025).
